Source: ChEMBL document CHEMBL4024702, “Covalent Modifiers: A Chemical Perspective on the Reactivity of α,β-Unsaturated Carbonyls with Thiols via Hetero-Michael Addition Reactions” (J Med Chem, 2017)

Chains of the proteins cited; added tags and fusions are not shown. Lines headed by an entry give the natural chain unless they say otherwise; changes in a name come on top.
UniProt P45983: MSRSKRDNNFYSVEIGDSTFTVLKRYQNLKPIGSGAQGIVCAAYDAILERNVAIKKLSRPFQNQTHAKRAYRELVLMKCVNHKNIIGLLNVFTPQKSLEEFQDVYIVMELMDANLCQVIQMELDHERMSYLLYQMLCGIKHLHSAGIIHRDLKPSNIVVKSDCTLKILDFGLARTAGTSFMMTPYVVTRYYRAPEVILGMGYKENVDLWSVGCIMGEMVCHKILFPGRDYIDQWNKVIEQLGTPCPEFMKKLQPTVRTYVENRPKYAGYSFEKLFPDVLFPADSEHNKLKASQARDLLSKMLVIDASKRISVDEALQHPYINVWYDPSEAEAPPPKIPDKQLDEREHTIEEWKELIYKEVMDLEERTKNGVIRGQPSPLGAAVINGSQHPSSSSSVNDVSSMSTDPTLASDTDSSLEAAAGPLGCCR
UniProt P53779: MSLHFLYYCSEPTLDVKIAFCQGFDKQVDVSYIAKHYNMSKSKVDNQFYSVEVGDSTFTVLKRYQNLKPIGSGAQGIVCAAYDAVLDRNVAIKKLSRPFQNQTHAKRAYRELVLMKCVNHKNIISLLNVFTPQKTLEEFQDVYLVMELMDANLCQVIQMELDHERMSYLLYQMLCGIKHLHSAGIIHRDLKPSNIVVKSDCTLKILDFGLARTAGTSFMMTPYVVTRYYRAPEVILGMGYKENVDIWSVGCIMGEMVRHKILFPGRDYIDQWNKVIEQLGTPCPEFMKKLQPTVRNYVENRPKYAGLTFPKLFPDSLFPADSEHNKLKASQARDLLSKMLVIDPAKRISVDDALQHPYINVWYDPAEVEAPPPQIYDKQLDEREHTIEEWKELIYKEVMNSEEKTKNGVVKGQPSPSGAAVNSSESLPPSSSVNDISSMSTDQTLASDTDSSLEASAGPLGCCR

Tests used:
[1] = target: Mitogen-activated protein kinase 8 (Homo sapiens, UniProt P45983); test: Inhibition of JNK1 (unknown origin) after 1 hr
[2] = target: Mitogen-activated protein kinase 10 (Homo sapiens, UniProt P53779); test: Inhibition of JNK3 (unknown origin) after 1 hr by FRET-based assay
[3] = tested on: rhinovirus B14; test: Irreversible inhibition of human rhinovirus serotype 14 3C protease assessed as ratio of Kobs/I by spectrofluorimetric analysis

Compound	IC50 [1]	IC50 [2]	Ratio [3]
Cc1cc(NC(=O)c2cccc(NC(=O)/C=C/CN(C)C)c2)ccc1Nc1nccc(-c2cccnc2)n1	1 to 19 nM	1 to 19 nM	
CCOC(=O)/C=C/[C@H](CCC(N)=O)NC(=O)[C@H](Cc1ccccc1)NC(=O)[C@H](CC(C)C)NC(=O)OCc1ccccc1			25000 M⁻¹ s⁻¹
